Assay [1] deals with human MDR1 Pgp (Homo sapiens, UniProt P08183). The experiment in a line: Inhibition of net [3H]digoxin transport in LLC-MDR1 cell monolayers. In kind it is cell-based.
The target of assay [2] is hamster Abcb1a Pgp (Cricetulus griseus, UniProt P21448). Nature of the assay: Fluorosome-trans-pgp.

Chains of the proteins cited; added tags and fusions are not shown.
UniProt P08183, whole entry: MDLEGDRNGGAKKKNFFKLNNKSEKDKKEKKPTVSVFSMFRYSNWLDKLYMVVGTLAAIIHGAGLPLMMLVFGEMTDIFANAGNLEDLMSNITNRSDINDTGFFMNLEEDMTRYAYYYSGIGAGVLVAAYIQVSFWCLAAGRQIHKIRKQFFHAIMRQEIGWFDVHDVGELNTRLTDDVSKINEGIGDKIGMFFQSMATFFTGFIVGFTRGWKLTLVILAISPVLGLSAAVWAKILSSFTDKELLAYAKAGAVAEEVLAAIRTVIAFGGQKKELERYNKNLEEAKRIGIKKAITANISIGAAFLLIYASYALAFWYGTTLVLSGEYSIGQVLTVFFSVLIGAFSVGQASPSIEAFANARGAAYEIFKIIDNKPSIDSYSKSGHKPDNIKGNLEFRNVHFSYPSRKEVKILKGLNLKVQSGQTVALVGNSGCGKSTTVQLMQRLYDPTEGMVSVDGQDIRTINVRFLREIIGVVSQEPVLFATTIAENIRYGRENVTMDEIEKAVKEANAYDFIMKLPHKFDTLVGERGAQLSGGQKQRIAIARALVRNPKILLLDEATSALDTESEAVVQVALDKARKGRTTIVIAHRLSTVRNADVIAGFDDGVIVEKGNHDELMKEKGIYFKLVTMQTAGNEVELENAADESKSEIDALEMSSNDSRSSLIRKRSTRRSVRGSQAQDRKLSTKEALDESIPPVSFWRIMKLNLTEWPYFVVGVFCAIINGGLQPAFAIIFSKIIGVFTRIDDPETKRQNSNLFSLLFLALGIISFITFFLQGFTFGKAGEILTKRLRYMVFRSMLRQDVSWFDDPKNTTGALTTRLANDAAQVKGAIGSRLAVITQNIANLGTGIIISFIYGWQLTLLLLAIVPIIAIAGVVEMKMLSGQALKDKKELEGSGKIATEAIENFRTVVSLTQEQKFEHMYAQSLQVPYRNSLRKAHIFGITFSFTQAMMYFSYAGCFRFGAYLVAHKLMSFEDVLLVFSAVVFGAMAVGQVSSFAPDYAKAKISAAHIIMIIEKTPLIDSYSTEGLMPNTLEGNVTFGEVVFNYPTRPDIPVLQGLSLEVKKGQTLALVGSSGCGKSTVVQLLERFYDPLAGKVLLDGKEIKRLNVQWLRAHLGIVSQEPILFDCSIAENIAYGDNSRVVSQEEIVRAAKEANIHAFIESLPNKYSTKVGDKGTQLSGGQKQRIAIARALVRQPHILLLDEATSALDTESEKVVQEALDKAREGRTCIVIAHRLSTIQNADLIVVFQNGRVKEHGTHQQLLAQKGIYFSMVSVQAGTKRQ
UniProt P21448, whole entry: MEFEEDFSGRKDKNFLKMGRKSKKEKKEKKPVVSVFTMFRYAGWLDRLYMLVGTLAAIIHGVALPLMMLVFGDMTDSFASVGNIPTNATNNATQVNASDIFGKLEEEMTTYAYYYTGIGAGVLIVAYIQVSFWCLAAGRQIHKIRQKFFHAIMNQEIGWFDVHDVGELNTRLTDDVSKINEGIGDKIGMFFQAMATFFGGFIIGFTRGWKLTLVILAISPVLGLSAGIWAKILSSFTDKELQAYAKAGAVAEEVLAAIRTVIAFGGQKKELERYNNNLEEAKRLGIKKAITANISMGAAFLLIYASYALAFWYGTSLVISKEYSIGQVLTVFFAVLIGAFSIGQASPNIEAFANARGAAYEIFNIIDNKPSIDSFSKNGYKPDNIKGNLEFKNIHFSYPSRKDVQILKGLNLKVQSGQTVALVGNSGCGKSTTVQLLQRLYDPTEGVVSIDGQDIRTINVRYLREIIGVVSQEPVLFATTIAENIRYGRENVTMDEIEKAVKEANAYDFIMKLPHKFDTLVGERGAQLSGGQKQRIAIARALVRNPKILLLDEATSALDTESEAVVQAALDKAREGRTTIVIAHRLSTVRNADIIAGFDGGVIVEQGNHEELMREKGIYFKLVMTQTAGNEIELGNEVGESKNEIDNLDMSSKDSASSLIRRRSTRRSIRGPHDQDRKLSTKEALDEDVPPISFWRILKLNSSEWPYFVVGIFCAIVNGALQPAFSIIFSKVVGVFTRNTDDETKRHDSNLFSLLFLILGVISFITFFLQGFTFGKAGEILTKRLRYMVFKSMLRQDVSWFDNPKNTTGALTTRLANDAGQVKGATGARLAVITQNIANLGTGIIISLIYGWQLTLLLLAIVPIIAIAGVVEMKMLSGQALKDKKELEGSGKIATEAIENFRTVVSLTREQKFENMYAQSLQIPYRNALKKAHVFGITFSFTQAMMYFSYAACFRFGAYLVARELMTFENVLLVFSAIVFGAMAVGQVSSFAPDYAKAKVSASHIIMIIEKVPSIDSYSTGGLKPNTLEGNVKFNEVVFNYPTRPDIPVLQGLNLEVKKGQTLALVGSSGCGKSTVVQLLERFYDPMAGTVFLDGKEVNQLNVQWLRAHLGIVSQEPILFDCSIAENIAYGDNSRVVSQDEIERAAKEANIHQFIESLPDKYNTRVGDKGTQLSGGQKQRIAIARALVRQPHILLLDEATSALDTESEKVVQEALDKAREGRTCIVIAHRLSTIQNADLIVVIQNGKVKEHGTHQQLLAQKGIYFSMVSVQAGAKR

For `COC(=O)C1=C(C)NC(C)=C(C(=O)OCCN(C)Cc2ccccc2)C1c1cccc([N+](=O)[O-])c1` (centres unmarked) [Nicardipine], in assay [1], the concentration for half-maximal inhibition (IC50) turned out to be 11 µM.

Consider `COc1cc2c(c(OC)c1OC)-c1ccc(OC)c(=O)cc1[C@@H](NC(C)=O)CC2` [Colchicine], for which the half-inhibitory concentration (IC50) in assay [2] is 230 µM.

These data come from PMC3322284 (Journal of Pharmacological and Toxicological Methods, 2012).
